Results on two compounds are retold here after US9987259B2 (priority 2011, dated 2018).

Sequences of proteins named here, by UniProt entry; tags and fusion partners are left off. Residues count along the entry.
UniProt P36544, 23-502 limits assumed: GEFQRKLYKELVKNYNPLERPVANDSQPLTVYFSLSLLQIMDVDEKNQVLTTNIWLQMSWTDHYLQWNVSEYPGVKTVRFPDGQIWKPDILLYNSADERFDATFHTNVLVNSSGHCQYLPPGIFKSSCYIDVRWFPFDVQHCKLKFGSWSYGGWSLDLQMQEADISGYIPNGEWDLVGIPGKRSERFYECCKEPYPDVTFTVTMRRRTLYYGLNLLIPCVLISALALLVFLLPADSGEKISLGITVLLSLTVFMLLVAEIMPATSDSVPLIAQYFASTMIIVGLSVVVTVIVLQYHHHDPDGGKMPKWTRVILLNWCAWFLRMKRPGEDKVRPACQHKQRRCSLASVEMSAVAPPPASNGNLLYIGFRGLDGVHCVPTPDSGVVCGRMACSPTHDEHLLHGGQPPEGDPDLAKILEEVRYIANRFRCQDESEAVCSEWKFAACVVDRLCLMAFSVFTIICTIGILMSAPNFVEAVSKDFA

Structures are written as SMILES.

This test addresses human α7 nAChR (Homo sapiens (Human), UniProt P36544). Nature of the test: FlexStation-Ca2+ influx assay of human α7 nAChR activity. The format is cell-based. Particulars: read-out: EC50 of human α7 nAChR; HEK293T/17 cells transfected with human α7 nAChR and RIC3; with PNU-120596; fluorescence relative to 1 μM epibatidine.

As usually defined, the EC50 is the concentration giving half of the maximal effect. As for `CC(C)c1cnc(-n2cc(C(=O)OC3CN4CCC3CC4)ccc2=O)s1` (centres unmarked), the EC50 is more than 1000 nM.

With `Cc1cnc(-n2cc(C(=O)OC3CN4CCC3CC4)ccc2=O)s1` (centres unmarked), the EC50 was more than 1000 nM.
